Our source for the inhibition values is PubChem BioAssay AID1789 (The Scripps Research Institute Molecular Screening Center, 2009).

This is a selection; strong and weak results do not stand in their true shares. Calls of active or inactive are those of the source.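 How the source made its calls: active means inhibition above the screen-wide mean plus 3 SD, computed separately per campaign (cut at about 16% in these data); inactive means the rest.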

The subject of the assay is Heat shock protein HSP 90 (rabbit reticulocyte lysate; luciferase refolding). In words: HSP90 inhibitors, primary screen, cell lysate, luminescence (AID 1789).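 Further: 0% = DMSO wells and 100% = 60 µM geldanamycin wells; inhibitors lower the luminescence because luciferase stays unfolded.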 The settings on record: 3 h, at 5.6 µM, hits give high values.
Take `O=C(OC1CN2CCC1CC2)c1ccccc1` (stereo not given): the inhibition (in general, the relative decrease from the control value, in per cent) is inactive: 3.72%.
In the case of `CN(C)C(=O)Oc1noc2ccccc12`, the inhibition is inactive: -3.54%.
Then `O=c1c2cc([N+](=O)[O-])ccc2[nH]c2c([N+](=O)[O-])cc([N+](=O)[O-])cc12`, with inactive: 0.96%; and `Cc1ccccc1OP(=O)(Nc1ccccn1)Oc1ccccc1C`, with inactive: 3.07%; and `CS(=O)(=O)c1cc([N+](=O)[O-])c2no[n+]([O-])c2c1`, with inactive: -0.04%.
On to `O=P(Nc1nccs1)(c1ccccc1)c1nc2ccccc2s1` (stereo not given), for which the inhibition is active: 26.9%.
As to `O=P(Nc1nccs1)(Oc1ccccc1)Oc1ccccc1`, the inhibition is inactive: 4.16%.
Then `CCOP1(=S)c2c(C)nn(CCC#N)c2N=C(c2ccccc2F)N1C` (stereo not given), with inactive: -1.74%.
Consider `O=C(O)COc1ccc([As](=O)(O)O)cc1[N+](=O)[O-]`, for which the inhibition is inactive: 2.82%.
Take `Nc1ccccc1[As](=O)(O)c1ccccc1`: the inhibition is inactive: 3.1%.
With `O=[N+]([O-])c1ccc2c(c1)nnn2O`, the inhibition was inactive: -0.14%.
Then `CCOP1(=S)c2c(C)nn(CCC#N)c2N=C(c2ccc(F)cc2)N1C` (stereo not given), with inactive: 4.18%.
Turning to `CS(=O)(=O)c1ccc(Cl)c(NC(=O)COC(=O)C(O)(c2ccccc2)c2ccccc2)c1`, the inhibition is inactive: -3.44%.
Then `COc1cc(C(=O)NCC2(N3CCOCC3)CCCCC2)cc(Cl)c1OC(C)C`, with inactive: -4.75%; and `O=[As](O)(O)c1cccnc1`, with inactive: 2.74%.
For `O=C(OC1CN2CCC1CC2)c1ccc(Cl)cc1` (stereo not given), the inhibition was inactive: 0.66%.
Then `O=[As](O)(c1cccc(O)c1)c1cccc(O)c1`, with inactive: -0.47%; and `Cc1cccc(OCC(=O)OC2CN3CCC2CC3)c1` (stereo not given), with inactive: -0.14%; and `CCCOP(=S)(Nc1nc(N)cc(=O)[nH]1)OCCC`, with inactive: -2.6%.
As for `Nc1cccc2c([As](=O)(O)O)cccc12`, the inhibition is active: 44.3%.
Then `Cc1ccc(NCCc2c([N+](=O)[O-])cc([N+](=O)[O-])cc2[N+](=O)[O-])cc1`, with inactive: 3.92%.
Then `CCOP(=O)(Nc1cccc2ccccc12)OCC`, with inactive: 3.94%.
With `COc1cc(C2NCCC3(OCCO3)C2(C)C)cc(OC)c1OC` (stereo not given), the inhibition is inactive: 4.47%.
Then `CCOP(=O)(Nc1ccc(C)cn1)OCC`, with inactive: -0.27%.
Consider `CCOP(=O)(NC(=NC(C)c1ccccc1)NC(C)c1ccccc1)OCC` (stereo not given), for which the inhibition was inactive: 5.41%.
Then `CCC1=CC2Cc3nc4ccc(Cl)cc4c(N)c3C(C1)C2` (stereo not given), with inactive: 0.74%.
On to `O=P1(Nc2ccccn2)COc2ccccc2OC1`, for which the inhibition is inactive: 4.28%.
On to `CC(C)(C)C(=O)NC(Sc1ncccn1)C(Cl)(Cl)Cl` (stereo not given), for which the inhibition is inactive: 15.2%.
Then `Clc1n[nH]nc1-c1nn[nH][15n]1`, with inactive: 5.6%; and `CC1(CBr)Cn2c(nc3ccccc3c2=O)S1` (stereo not given), with inactive: 1.38%; and `O=[As](O)(c1ccccc1Br)c1ccccc1Br`, with inactive: 1.56%.
Consider `CN(C(=O)Cc1ccc(Cl)c(Cl)c1)[C@@H]1CCCC[C@H]1N1CCCC1`, for which the inhibition is inactive: -3.37%.
Regarding `CC(C)/C=N\N=C(\N)N[N+](=O)[O-]`, the inhibition is inactive: -3.19%.
For the molecule `Cc1ccc(C(=O)OC2CN3CCC2CC3)cc1` (stereo not given), the inhibition is inactive: -0.54%.
Then `CC1CCC(C(C)C)C(OP(=O)(Nc2ccccn2)c2ccccc2)C1` (stereo not given), with inactive: 6.4%; and `Cc1nn(-c2ccccc2)c2c1P(=O)(N1CCOCC1)N(C)C(c1ccccc1)=N2` (stereo not given), with inactive: 0.54%.
Consider `O=C(/C=C/c1ccccc1)OC1CN2CCC1CC2` (stereo not given), for which the inhibition is inactive: 3.56%.
Then `CN(C)C1(CNC(=O)c2ccc(S(C)(=O)=O)cc2)CCCCC1`, with inactive: -0.87%; and `O=P1(Nc2ncccn2)COc2ccccc2OC1`, with inactive: -0.84%.
`O=P1(Nc2ccc(Br)cn2)COc2ccccc2OC1`: the inhibition was inactive: 0.96%.
Turning to `O=[As](O)(c1cccs1)c1cccs1`, the inhibition was inactive: 2.05%.
Then `Cc1ccc(OCC(=O)OC2CN3CCC2CC3)cc1` (stereo not given), with inactive: 0.56%; and `Nc1cccc([As](=O)(O)c2ccccc2)c1`, with inactive: 3.88%.
Consider `CCOC(=O)Nc1ccc([As](=O)(O)O)c(O)c1`, for which the inhibition was inactive: 0.55%.
In the case of `Cc1cc(SC(NC(=O)c2ccccc2)C(Cl)(Cl)Cl)nc(C(C)C)n1` (stereo not given), the inhibition is inactive: -1.04%.
Then `CCCCOc1ccc(C(=O)NCC2(N3CCCCC3)CCCCC2)cc1OC`, with inactive: 3.65%.
Then `CCOC(=O)Nc1cccc([As](=O)(O)O)c1`, with inactive: 8.01%; and `O=[N+]([O-])c1ccc(Nc2ccc(Oc3ccc([N+](=O)[O-])cc3[N+](=O)[O-])cc2)c([N+](=O)[O-])c1`, with inactive: -2.68%; and `Cc1cc(SC(NC=O)C(Cl)(Cl)Cl)ncn1` (stereo not given), with inactive: 1.36%.
Then `O=P(Nc1ccccn1)(c1cccc2ccccc12)c1cccc2ccccc12`, with inactive: 1.3%; and `COP1(=S)c2c(C)nn(CCC#N)c2N=C(c2ccc(F)cc2)N1C` (stereo not given), with inactive: 0.45%; and `O=C(Nc1ccncc1[N+](=O)[O-])c1ccc([N+](=O)[O-])cc1[N+](=O)[O-]`, with inactive: 3.69%.
As to `O=C(COc1ccccc1)OC1CN2CCC1CC2` (stereo not given), the inhibition was inactive: -1.11%.
Consider `CCOC(=O)c1ccc(NC(=O)C(C)(CCl)SC)cc1` (stereo not given), for which the inhibition is inactive: -4.4%.
Take `O=C(OC1CN2CCC1CC2)c1cccc([N+](=O)[O-])c1` (stereo not given): the inhibition was inactive: -2.56%.
Take `CCC(C)N(CC(C)C)C(=S)SC(NC(C)=O)C(Cl)(Cl)Cl` (stereo not given): the inhibition is inactive: 3.31%.
Turning to `Cc1cc(=O)[nH]c(N[N+](=O)[O-])n1`, the inhibition was inactive: -2.23%.
Then `O=C(OC1CN2CCC1CC2)C12CC3CC(CC(C3)C1)C2` (stereo not given), with inactive: 2.23%; and `Cc1c2c(nc3ccccc13)SC(C(Cl)Cl)C2` (stereo not given), with inactive: -2.47%; and `COc1cc(I)ccc1[As](=O)(O)O`, with inactive: 5.01%.
As to `COc1ccc2nc(NP(=O)(c3ccccc3)c3ccccc3)sc2c1`, the inhibition is inactive: 3.3%.
Then `COc1ccc(N/C(=N/P(=O)(N2CCOCC2)N2CCOCC2)N2CCOCC2)cc1`, with inactive: -4.26%; and `C[As](=O)(O)c1cccc(C(=O)O)c1`, with inactive: 1.22%; and `Cc1ccc2nc3c(c(C)c2c1)CC(C(Cl)Cl)S3` (stereo not given), with inactive: -3.19%.
Then `Cc1ccc(OP(=O)(Nc2ccc([N+](=O)[O-])cn2)Oc2ccc(C)cc2)cc1`, with inactive: 0.28%; and `CC(C)c1ccc(OP(=O)(Nc2ccccn2)Oc2ccccc2F)cc1` (stereo not given), with inactive: -4.73%; and `ClCCSc1nnc(-c2cccnc2)o1`, with inactive: -0.57%.
In the case of `O=[N+]([O-])c1cc([N+](=O)[O-])c(-c2ccn[nH]2)s1`, the inhibition is inactive: 0.38%.
For the molecule `CCN(CC)C(=S)SC(NC=O)C(Cl)(Cl)Cl` (stereo not given), the inhibition was inactive: -0.5%.
Then `CC(C)NC(=O)NP(=O)(Oc1ccccc1)Oc1ccccc1`, with inactive: 2.73%.
